Biological target: T1, recombinant human HDAC8 (Homo sapiens, UniProt Q9BY41)
T1 construct: purchased BPS Biosciences
T1 sequence (Q9BY41 1-377): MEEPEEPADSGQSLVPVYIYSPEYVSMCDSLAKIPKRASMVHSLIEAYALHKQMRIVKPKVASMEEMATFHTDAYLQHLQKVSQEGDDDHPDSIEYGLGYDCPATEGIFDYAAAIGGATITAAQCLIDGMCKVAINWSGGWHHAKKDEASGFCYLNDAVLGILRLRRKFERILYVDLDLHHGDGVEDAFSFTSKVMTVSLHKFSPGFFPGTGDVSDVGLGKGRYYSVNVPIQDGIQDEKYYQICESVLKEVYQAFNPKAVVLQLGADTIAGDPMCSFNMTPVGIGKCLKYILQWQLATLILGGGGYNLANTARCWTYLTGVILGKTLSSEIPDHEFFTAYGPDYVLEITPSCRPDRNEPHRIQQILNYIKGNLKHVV
Assay: recombinant human HDAC8 enzymatic assay
Format: biochemical
Conditions: 10-dose IC50 mode in duplicate, three-fold serial dilution
Procedure: The assays were carried out by Shanghai ChemPartner Co., Ltd (Shanghai, China), according to our previous method. Briefly, different concentrations of compounds were incubated with recombinant human HDAC1, HDAC2, HDAC3, HDAC6 and HDAC8 (BPS Biosciences, San Diego, CA, USA) at room temperature for 15 min, which was followed by adding Ac-peptide-AMC substrates to initiate the reaction in Tris-based assay buffer. Reaction mixtures were incubated at room temperature for 60 min in HDAC1, HDAC2, HDAC3 and HDAC6 assays, and were incubated for 240 min in HDAC8 assay. Then, the stop solution containing trypsin was added. The coupled reaction was incubated for another 90 min at 37 °C. Fluorescent AMC released from substrate was measured in SynergyMx (BioTek, Winooski, VT, US) using filter sets as excitation = 355 nm and emission = 460 nm. IC50 values were calculated by GraphPad Prism software (7.0 version., GraphPad Software, San Diego, CA, USA).

Substance: largazole thiol [reference compound]
- IC50: 3.75 ± 0.2 nM

Reference: PMC7401273, “Unexpected Enhancement of HDACs Inhibition by MeS Substitution at C-2 Position of Fluoro Largazole” (Marine Drugs, 2020)
